The list shows a part of the results, in another mix than the full data. Calls of active or inactive are those of the source. Cut-off read from the data, not from the text of the source: active = inhibition above about 22% (passing the limit was not always enough); inconclusive = no clear call, values can overlap the other calls.

Among the data in PubChem BioAssay AID488 (PCMD, 2006) are inhibition values, retold here.

For the experiment, the target named is Cathepsin B (Homo sapiens) (UniProt P07858). As to the kind of experiment: cathepsin B inhibitors from pooled compounds, primary screen, biochemical, compound mixtures, AMC fluorescence (AID 488).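 Note: 0% = enzyme without compound and 100% = no enzyme blank.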 The note with it: Purified cathepsin B, AMC dipeptide fluorescence, active compounds read high,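 ten-compound pools at 5 µM per compound and 50 µM total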.
As usually defined, the inhibition is the relative decrease from the control value, in per cent. With `COc1ccccc1OP(C)(=O)Nc1c(C)n(C)n(-c2ccccc2)c1=O` (stereo not drawn), the inhibition is inactive: 3.88%.
The result for `CP(=O)(Oc1ccccc1)N1CCOC1=O` (stereo not drawn) reads inactive: 3.1%; that for `CCN(CC)CC(O)COC(=O)C(O)(c1ccccc1)C1CCCCC1` (stereo not drawn), inactive: 4.15%; that for `CP(=O)(Nc1ccccn1)Oc1ccccc1` (stereo not drawn), inactive: 2.12%.
The result for `Cc1nc2ccc3ccccc3c2o1.O=[N+]([O-])c1cc([N+](=O)[O-])c(O)c([N+](=O)[O-])c1` reads inactive: -0.48%; that for `COc1ccccc1OP(C)(=O)Nc1ccc(C)c(C)c1` (stereo not drawn), inactive: 5.11%.
For `CP(=O)(Nc1ccccc1F)Oc1ccccc1` (stereo not drawn), the inhibition was inactive: 2.72%.
As for `Cc1ccccc1NP(C)(=O)Nc1ccccc1C`, the figure is inactive: -3.69%; as for `CP(=O)(Nc1ccc2c(c1)OCCO2)Oc1ccccc1` (stereo not drawn), inactive: 4.44%; as for `CCOP(C)(=S)SCC(=O)NC(C)(CC)C(=O)O` (stereo not drawn), inactive: 7.22%.
With `CN(C)CCOC(=O)C(O)(c1ccccc1)C1CCCCC1` (stereo not drawn), the inhibition was inactive: 2.61%.
The result for `Cc1nc2ccc3ccccc3c2s1.O=[N+]([O-])c1cc([N+](=O)[O-])c(O)c([N+](=O)[O-])c1` reads inactive: 3.29%.
With `Cc1ccc(C)c(NP(C)(=O)Oc2ccccc2)c1` (stereo not drawn), the inhibition is inactive: -1.15%.
The result for `COc1ccccc1OP(C)(=O)Nc1ccc(C)cc1` (stereo not drawn) reads inactive: 1.14%; that for `Cc1ccc(NP(C)(=O)Oc2ccccc2)c(C)c1` (stereo not drawn), inactive: -0.385%; that for `CCOP(C)(=S)SCC(=O)NC(C)C(=O)O` (stereo not drawn), inactive: 5.24%.
As for `CP(=O)(NC(=O)Nc1ccccc1)Oc1ccccc1` (stereo not drawn), the figure is inactive: -1.77%; as for `CP(=S)(Nn1cnnc1)Oc1ccccc1` (stereo not drawn), inactive: 2.62%.
